{
  "sequences": {"note": "Amino acid sequences for entries named in this document (tags omitted). Residues count along the entry.", "UniProt O60894, 27-148 partner": "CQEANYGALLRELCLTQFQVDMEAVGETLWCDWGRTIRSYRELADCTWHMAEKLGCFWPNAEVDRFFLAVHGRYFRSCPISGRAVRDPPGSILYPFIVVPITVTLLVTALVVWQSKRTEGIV", "UniProt Q16602, 23-461": "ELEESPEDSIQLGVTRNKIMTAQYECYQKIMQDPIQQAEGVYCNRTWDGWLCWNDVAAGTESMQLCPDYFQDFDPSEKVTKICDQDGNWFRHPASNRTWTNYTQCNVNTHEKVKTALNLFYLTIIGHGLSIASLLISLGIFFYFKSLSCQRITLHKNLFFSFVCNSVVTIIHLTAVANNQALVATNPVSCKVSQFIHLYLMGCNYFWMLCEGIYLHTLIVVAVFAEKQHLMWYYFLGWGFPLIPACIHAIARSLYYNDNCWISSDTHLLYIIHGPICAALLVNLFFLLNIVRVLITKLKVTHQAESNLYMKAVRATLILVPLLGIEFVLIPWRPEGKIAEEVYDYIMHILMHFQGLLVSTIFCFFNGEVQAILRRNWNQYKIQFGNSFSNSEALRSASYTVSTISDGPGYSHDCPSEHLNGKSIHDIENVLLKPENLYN"},
  "source": "patent US8076288B2",
  "about": "(priority 2004, dated 2011)",
  "key": {"GLP-1 receptor": {"molecular_target": "T1, GLP-1 receptor (Rattus norvegicus, UniProt P32301)", "T1 construct": "Homogenized RINm5F cell membranes are incubated; endogenous in cells; host or cells: RINm5F cells (membranes); 'RIN' for the cyclase read-out", "T1 sequence (P32301 22-463)": "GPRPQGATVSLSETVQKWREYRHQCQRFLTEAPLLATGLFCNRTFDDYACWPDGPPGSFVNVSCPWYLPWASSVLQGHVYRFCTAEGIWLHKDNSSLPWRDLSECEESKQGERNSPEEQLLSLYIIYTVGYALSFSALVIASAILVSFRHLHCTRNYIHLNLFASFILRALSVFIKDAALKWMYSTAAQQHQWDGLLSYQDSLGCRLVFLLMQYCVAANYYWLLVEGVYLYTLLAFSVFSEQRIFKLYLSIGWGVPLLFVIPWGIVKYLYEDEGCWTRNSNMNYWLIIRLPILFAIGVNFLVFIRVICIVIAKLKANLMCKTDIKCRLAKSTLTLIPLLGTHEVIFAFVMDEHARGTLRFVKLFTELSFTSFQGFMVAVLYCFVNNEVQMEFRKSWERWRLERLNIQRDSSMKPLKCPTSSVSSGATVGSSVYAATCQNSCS", "conditions": "Table 4-1; read-out: Receptor Binding (IC50) nM, GLP1R"}, "CGRP receptors": {"molecular_target": "T2, CGRP receptors (Homo sapiens, UniProt O60894+Q16602)", "T2 construct": "SK-N-MC and L6 cells expressing endogenous CGRP receptors; endogenous in cells; host or cells: SK-N-MC cells (membranes)", "type": "binding"}, "calcitonin receptor": {"molecular_target": "T3, calcitonin receptor (Rattus norvegicus, UniProt P32214)", "T3 construct": "host or cells: general text: 'CHO cells or T47D cells'", "T3 sequence (P32214 25-479 isoform P32214-2 limits assumed)": "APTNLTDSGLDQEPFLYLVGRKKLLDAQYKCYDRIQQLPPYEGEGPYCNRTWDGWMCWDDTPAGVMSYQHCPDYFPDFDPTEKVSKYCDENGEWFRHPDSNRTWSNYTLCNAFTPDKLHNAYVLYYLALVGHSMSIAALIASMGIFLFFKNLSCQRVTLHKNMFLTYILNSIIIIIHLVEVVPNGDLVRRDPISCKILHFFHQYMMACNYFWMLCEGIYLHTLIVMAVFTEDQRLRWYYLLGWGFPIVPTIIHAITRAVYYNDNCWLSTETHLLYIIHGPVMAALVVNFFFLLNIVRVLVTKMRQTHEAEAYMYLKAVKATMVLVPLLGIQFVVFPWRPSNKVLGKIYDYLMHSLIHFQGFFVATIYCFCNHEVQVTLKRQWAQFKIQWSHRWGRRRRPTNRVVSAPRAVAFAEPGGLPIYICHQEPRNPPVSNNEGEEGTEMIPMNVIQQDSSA", "conditions": "b373; read-out: IC50 in a CT receptor binding assay"}, "amylin receptors": {"molecular_target": "T4, amylin receptors (Rattus norvegicus, UniProt P32214)", "T4 construct": "nuclueus accumbens membranes prepared from rat brain; from tissue; host or cells: rat basal forebrain / nucleus accumbens membranes (male Sprague-Dawley rats)", "T4 sequence (P32214 25-516)": "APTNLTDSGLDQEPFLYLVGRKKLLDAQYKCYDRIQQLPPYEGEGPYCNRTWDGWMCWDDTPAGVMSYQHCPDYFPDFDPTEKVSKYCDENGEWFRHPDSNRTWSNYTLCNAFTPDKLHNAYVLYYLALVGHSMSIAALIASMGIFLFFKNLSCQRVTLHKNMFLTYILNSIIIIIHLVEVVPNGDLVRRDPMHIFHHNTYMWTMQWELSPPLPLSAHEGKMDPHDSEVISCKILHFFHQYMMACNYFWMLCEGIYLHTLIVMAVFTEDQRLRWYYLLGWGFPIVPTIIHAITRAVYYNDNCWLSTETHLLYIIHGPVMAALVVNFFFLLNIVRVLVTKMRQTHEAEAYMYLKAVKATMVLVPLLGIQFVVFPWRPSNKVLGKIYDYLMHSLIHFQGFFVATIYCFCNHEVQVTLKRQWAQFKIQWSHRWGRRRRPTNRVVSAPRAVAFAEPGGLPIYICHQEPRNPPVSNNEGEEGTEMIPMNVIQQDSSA", "T4 sequence (Q9JJ74 27-148 partner)": "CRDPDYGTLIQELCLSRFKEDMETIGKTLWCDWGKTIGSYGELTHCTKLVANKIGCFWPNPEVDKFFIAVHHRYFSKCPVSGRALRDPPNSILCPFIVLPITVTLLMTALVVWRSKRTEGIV", "type": "binding"}, "CT receptor": {"molecular_target": "T5, CT receptor (Rattus norvegicus, UniProt P32214)", "T5 construct": "host or cells: general text: 'CHO cells or T47D cells'", "T5 sequence (P32214 25-479 isoform P32214-2 limits assumed)": "T3 sequence (P32214 25-479 isoform P32214-2 limits assumed)", "assay": "CT cyclase (C1A) assay", "type": "biochemical"}, "[1]": {"conditions": "active GLP-1; cited from earlier work"}},
  "note": "Where two headings read alike, the source gives them in different places.",
  "data": [
    {"substance": "HGEGAFTSDLSKQLEEEAVRLFIEFLKN-NH2 [Compound 12, reference compound]", "values": [
      {"measurement": "IC50", "setting": "GLP-1 receptor", "value": 1.9, "unit": "nM"}
    ]},
    {"substance": "DF(P-CH2SO3)MGWMDFGKR KCNTATCATQRLANELVRLQTYPRTNVGSNTY [SEQ ID NO: 398]", "values": [
      {"measurement": "IC50", "setting": "CGRP receptors; b373, read-out: IC50 in a CGRP receptor binding assay", "value": 4.4, "unit": "nM"},
      {"measurement": "IC50", "setting": "calcitonin receptor", "value": 0.044, "unit": "nM"},
      {"measurement": "IC50", "setting": "amylin receptors; b373, read-out: IC50 in an amylin receptor binding assay", "value": 0.083, "unit": "nM"}
    ]},
    {"substance": "^29GlyGlyGly-Exendin(1-28),hAmylin(1-7)-^11,18Arg-sCt(8-27)-hAmylin(33-37) [Compound 15]", "values": [
      {"measurement": "IC50", "setting": "amylin receptors; read-out: Receptor Binding Assay, Amylin", "value": 0.2, "unit": "nM"}
    ]},
    {"substance": "[Ser117, dLeu119]leptin(116-122)-Amylin(1-7)-[^11,18Arg]sCT(8-27) -Amylin(33-37) [Compound 16]", "values": [
      {"measurement": "IC50", "setting": "CGRP receptors; read-out: IC50, CGRP RBA", "value": 81, "unit": "nM"},
      {"measurement": "IC50", "setting": "CT receptor", "value": 2.2, "unit": "nM"},
      {"measurement": "IC50", "setting": "amylin receptors; RBA = receptor binding assay, read-out: IC50, amylin RBA", "value": 0.04, "unit": "nM"}
    ]},
    {"substance": "GLP-1", "values": [
      {"measurement": "plasma half-life", "setting": "[1]", "value": "< 5", "unit": "min"}
    ]}
  ]
}
